In brackets after ≈: the same amount, converted by molar mass.
Columns and labels:
[1] = biological target: Glutamate receptor ionotropic, NMDA 2B (Rattus norvegicus) (UniProt Q00960); settings: Oocyte, filed as positive allosteric modulator
[2] = biological target: Glutamate receptor ionotropic, NMDA 2C (Rattus norvegicus) (UniProt Q00961); settings: Oocyte, filed as positive allosteric modulator
[3] = biological target: Glutamate receptor ionotropic, NMDA 2D (Rattus norvegicus) (UniProt Q62645); settings: Oocyte, filed as positive allosteric modulator
[4] = Kinetic solubility of compound in PBS at pH 7.3 by nephelometry
[5] = Stability in human plasma assessed as half life
[6] = Stability in mouse plasma assessed as half life
[7] = Stability in rat plasma assessed as half life
[8] = Apparent permeability in MDCK-MDR1 cells; settings: dog
[9] = Half life in Sprague-Dawley rat at 1 mg/kg, iv; settings: in vivo
[10] = Clearance in Sprague-Dawley rat at 1 mg/kg, iv; settings: in vivo
[11] = Volume of distribution at steady state in Sprague-Dawley rat at 1 mg/kg, iv; settings: in vivo
[12] = Half life in Sprague-Dawley rat at 10 mg/kg, po; settings: in vivo
in vivo [13] = settings: Sprague-Dawley, rat, brain, iv, 1 mg/kg
in vivo [14] = settings: Sprague-Dawley, rat, plasma, iv, 1 mg/kg
in vivo [15] = settings: Sprague-Dawley, rat, ip, 10 mg/kg
in vivo [16] = settings: Sprague-Dawley, rat, ip, 10 mg/kg; remark: listed apart in the source
in vivo [17] = settings: Sprague-Dawley, rat, brain, ip, 10 mg/kg
in vivo [18] = settings: Sprague-Dawley, rat, plasma, ip, 10 mg/kg
in vivo [19] = settings: Sprague-Dawley, rat, po, 10 mg/kg
in vivo [20] = settings: Sprague-Dawley, rat, brain, po, 10 mg/kg
in vivo [21] = settings: Sprague-Dawley, rat, plasma, po, 10 mg/kg
in vivo [22] = settings: C57BL/6, mouse, ip, 10 mg/kg
in vivo [23] = settings: C57BL/6, mouse, ip, 10 mg/kg; remark: listed apart in the source
in vivo [24] = settings: C57BL/6, mouse, brain, ip, 10 mg/kg
in vivo [25] = settings: C57BL/6, mouse, plasma, ip, 10 mg/kg
in vivo [26] = settings: Sprague-Dawley, rat, plasma, po, 10 mg/kg; remark: listed apart in the source
in vitro [27] = settings: human, liver microsomes
in vitro [28] = settings: Sprague-Dawley, rat, liver microsomes
in vitro [29] = settings: human, hepatocytes
[30] = biological target: Glutamate receptor ionotropic, NMDA 2B (Rattus norvegicus) (UniProt Q00960); settings: Oocyte, filed as positive allosteric modulator; remark: listed apart in the source
[31] = biological target: Glutamate receptor ionotropic, NMDA 2C (Rattus norvegicus) (UniProt Q00961); settings: Oocyte, filed as positive allosteric modulator; remark: listed apart in the source
[32] = biological target: Glutamate receptor ionotropic, NMDA 2D (Rattus norvegicus) (UniProt Q62645); settings: Oocyte, filed as positive allosteric modulator; remark: listed apart in the source

Amino acid sequences for entries named in this document (tags omitted). A change or cut given only in a name is not applied to a line headed by its entry.
UniProt Q00960, whole entry, looked up: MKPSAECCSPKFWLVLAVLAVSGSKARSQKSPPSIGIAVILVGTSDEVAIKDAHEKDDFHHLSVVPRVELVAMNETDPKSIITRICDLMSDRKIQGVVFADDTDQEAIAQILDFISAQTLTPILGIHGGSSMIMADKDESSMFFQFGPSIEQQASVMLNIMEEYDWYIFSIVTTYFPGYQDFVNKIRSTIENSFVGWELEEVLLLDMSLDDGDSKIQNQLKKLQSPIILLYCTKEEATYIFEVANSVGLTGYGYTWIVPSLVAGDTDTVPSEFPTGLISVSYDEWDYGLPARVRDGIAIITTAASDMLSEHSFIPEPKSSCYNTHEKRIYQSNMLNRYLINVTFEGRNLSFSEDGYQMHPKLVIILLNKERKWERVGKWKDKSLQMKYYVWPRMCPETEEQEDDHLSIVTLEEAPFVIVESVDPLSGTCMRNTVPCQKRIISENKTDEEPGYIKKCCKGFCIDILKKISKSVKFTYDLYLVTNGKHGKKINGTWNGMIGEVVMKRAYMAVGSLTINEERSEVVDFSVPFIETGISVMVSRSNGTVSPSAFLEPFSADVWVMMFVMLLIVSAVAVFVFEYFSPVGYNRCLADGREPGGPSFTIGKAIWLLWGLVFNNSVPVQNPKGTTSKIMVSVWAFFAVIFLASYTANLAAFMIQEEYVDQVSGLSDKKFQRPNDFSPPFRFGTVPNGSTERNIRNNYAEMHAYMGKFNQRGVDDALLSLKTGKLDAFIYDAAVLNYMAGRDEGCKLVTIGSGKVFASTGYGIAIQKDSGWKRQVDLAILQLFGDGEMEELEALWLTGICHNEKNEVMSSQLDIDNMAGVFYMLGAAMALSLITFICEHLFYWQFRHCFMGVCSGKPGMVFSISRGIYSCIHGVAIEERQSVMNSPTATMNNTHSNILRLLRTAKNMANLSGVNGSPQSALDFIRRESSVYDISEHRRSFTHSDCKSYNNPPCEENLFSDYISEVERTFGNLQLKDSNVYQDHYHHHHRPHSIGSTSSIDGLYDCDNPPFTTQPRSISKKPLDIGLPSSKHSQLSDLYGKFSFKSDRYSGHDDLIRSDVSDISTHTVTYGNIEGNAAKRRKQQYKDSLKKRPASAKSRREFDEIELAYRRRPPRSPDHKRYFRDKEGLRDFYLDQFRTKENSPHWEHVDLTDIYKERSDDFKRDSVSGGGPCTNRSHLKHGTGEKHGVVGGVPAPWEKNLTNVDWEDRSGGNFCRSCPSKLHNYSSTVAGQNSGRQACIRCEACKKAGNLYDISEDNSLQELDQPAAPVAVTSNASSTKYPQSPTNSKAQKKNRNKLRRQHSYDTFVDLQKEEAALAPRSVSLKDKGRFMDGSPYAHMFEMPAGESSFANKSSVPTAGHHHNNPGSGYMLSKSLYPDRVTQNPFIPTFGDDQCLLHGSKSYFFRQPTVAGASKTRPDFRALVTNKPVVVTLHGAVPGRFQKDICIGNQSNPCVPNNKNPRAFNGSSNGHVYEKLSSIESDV
UniProt Q00961: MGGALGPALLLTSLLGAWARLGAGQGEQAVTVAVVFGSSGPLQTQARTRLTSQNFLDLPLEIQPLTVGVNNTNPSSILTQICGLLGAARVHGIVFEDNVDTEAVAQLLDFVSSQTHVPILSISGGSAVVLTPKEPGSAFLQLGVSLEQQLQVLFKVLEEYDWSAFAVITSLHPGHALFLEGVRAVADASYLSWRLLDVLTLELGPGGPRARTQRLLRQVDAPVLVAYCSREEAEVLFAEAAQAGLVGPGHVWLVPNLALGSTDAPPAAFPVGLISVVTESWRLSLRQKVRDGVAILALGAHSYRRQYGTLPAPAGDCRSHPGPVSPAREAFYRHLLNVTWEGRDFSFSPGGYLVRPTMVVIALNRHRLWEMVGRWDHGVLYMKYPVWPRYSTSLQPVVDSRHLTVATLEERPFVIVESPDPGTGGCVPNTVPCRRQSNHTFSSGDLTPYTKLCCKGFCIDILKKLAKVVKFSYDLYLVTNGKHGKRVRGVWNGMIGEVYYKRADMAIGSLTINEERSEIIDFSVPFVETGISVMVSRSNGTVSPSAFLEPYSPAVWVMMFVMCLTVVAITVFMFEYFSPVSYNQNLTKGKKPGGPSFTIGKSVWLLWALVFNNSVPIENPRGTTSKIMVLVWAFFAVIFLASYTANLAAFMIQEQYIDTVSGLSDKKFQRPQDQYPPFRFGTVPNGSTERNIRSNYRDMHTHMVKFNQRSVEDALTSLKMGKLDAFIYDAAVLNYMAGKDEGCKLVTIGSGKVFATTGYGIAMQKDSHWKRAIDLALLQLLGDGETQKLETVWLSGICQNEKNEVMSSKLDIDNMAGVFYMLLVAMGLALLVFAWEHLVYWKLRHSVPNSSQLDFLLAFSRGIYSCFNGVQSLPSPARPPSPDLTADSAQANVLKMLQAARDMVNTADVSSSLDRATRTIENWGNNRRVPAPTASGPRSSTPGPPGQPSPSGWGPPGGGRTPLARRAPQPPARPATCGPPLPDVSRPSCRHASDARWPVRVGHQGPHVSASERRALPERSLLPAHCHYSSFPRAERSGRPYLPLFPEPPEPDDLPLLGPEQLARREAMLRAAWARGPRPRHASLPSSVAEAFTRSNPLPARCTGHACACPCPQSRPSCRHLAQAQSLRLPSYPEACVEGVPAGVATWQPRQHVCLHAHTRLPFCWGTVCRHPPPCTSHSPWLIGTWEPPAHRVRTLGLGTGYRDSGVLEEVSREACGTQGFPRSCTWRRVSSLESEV
UniProt Q62645, whole entry: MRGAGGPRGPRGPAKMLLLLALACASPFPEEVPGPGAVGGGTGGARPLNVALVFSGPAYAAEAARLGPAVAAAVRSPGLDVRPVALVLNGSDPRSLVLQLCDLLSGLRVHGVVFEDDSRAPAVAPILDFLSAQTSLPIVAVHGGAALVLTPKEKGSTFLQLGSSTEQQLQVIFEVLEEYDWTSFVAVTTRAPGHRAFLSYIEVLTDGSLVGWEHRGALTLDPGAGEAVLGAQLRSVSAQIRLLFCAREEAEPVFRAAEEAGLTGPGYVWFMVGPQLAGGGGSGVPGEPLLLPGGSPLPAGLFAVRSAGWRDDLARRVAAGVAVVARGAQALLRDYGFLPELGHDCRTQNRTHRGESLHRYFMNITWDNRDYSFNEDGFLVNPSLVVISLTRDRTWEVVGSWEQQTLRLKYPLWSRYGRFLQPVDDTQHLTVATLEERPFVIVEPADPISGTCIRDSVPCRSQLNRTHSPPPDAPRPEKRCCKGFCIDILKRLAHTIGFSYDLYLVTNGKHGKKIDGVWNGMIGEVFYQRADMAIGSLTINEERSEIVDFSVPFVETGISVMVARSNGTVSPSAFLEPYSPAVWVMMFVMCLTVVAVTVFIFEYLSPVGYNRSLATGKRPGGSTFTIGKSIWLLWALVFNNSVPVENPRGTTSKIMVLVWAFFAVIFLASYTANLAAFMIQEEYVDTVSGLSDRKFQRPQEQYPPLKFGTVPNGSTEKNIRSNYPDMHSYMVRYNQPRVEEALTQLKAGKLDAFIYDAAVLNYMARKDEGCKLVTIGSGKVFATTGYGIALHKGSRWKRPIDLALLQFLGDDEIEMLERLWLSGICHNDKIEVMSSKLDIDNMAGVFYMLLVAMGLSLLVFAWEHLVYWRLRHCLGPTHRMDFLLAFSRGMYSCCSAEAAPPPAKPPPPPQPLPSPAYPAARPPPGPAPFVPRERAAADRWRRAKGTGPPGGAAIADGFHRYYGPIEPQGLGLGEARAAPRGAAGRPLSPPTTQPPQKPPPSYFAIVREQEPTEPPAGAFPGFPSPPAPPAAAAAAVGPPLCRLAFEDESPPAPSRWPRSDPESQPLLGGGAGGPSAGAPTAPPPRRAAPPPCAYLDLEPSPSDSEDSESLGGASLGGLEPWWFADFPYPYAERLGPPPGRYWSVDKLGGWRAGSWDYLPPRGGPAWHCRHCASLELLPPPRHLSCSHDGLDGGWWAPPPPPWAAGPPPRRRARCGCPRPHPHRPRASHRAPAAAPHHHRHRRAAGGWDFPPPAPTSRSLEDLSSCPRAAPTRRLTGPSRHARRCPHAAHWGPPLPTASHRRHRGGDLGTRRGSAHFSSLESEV

SMILES: CCc1sc2ncn(CC(=O)N3CC(C)(F)C3)c(=O)c2c1-c1ccc(F)c(Br)c1
- EC200 [1]: 0.76 µM
- EC200 [2]: 0.49 µM
- EC200 [3]: 0.64 µM

SMILES: Cc1sc2ncn(CC(=O)N3CC(C)(F)C3)c(=O)c2c1-c1cc(Cl)ccc1F
- EC200 [1]: 1.9 µM
- EC200 [2]: 0.83 µM
- EC200 [3]: 0.88 µM

SMILES: Cc1sc2ncn(CC(=O)N3CC(C)C3)c(=O)c2c1-c1cccc(Br)c1
- EC200 [1]: 18 µM
- EC200 [2]: 2.7 µM
- EC200 [3]: 4.6 µM

SMILES: CC1(F)CN(C(=O)Cn2cnc3sc([N+](=O)[O-])c(-c4ccc(F)c(Br)c4)c3c2=O)C1
- EC200 [1]: 8.3 µM
- EC200 [2]: 4.4 µM
- EC200 [3]: 4.8 µM

SMILES: Cc1sc2ncn(CC(=O)N3CC(C)(F)C3)c(=O)c2c1-c1cccc(OC(F)(F)F)c1
- EC200 [1]: 1 µM
- EC200 [2]: 0.83 µM
- EC200 [3]: 0.57 µM

SMILES: Cc1sc2ncn(CC(=O)N3CCC(C)(F)C3)c(=O)c2c1-c1cccc(Br)c1 (stereo not drawn)
- EC200 [1]: 3.5 µM
- EC200 [2]: 2.1 µM
- EC200 [3]: 2.5 µM

SMILES: Cc1sc2ncn(CC(=O)N3CC(C)(F)C3)c(=O)c2c1-c1ccc(F)c(OC(C)C)c1
- EC200 [1]: 1 µM
- EC200 [2]: 0.78 µM
- EC200 [3]: 0.83 µM

SMILES: CCC1(F)CN(C(=O)Cn2cnc3sc(C)c(-c4cccc(Br)c4)c3c2=O)C1
- EC200 [1]: 1.1 µM
- EC200 [2]: 0.69 µM
- EC200 [3]: 0.83 µM

SMILES: Cc1sc2ncn(CC(=O)N3CC(C)(F)C3)c(=O)c2c1-c1ccc(F)c(Br)c1
- EC200 [1]: 0.55 µM
- EC200 [2]: 0.36 µM
- EC200 [3]: 0.26 µM

SMILES: C#Cc1sc2ncn(CC(=O)N3CC(C)(F)C3)c(=O)c2c1-c1ccc(F)c(Br)c1
- solubility kinetic [4]: 40 µM (≈ 19.1 µg/mL)
- half-life [5]: > 4 h
- half-life [6]: > 4 h
- half-life [7]: > 4 h
- Papp [8]: 15.3 ×10⁻⁶ cm/s
- half-life [9]: 0.8 h
- clearance [10]: 78.8 mL/min/kg
- Vd [11]: 3.7 L/kg
- half-life [12]: 6.4 h
- EC200 [1]: 0.29 µM
- EC200 [2]: 0.34 µM
- EC200 [3]: 0.21 µM
- Cmax (in vivo [13]): 223 ng/mL
- Cmax (in vivo [14]): 289 ng/mL
- half-life (in vivo [15]): 2.8 h
- CL/F (in vivo [16]): 49.7 mL/min/kg
- Cmax (in vivo [17]): 666 ng/mL
- Cmax (in vivo [18]): 1050 ng/mL
- CL/F (in vivo [19]): 76.8 mL/min/kg
- Cmax (in vivo [20]): 117 ng/mL
- Cmax (in vivo [21]): 198 ng/mL
- half-life (in vivo [22]): 0.9 h
- CL/F (in vivo [23]): 52.8 mL/min/kg
- Cmax (in vivo [24]): 894 ng/mL
- Cmax (in vivo [25]): 2860 ng/mL
- bioavailability (in vivo [26]): 58%
- microsomal CLint at 0.5 h, 3 µM (in vitro [27]): 4 µL/min/mg
- microsomal CLint at 0.5 h, 3 µM (in vitro [28]): 12.4 µL/min/mg
- CLint scaled (in vitro [29]): 4.2 mL/min/kg

SMILES: Cc1sc2ncn(CC(=O)N3CCC(C)C3)c(=O)c2c1-c1cccc(Br)c1 (stereo not drawn)
- EC200 [1]: 7.8 µM
- EC200 [2]: 1.6 µM
- EC200 [3]: 2.1 µM

SMILES: Cc1sc2ncn(CC(=O)N3CC(C)(F)C3)c(=O)c2c1-c1ccc(Cl)c(Cl)c1
- EC200 [1]: 0.28 µM
- EC200 [2]: 0.33 µM
- EC200 [3]: 0.22 µM

SMILES: Cc1sc2ncn(CC(=O)N3CCC3)c(=O)c2c1-c1cccc(Br)c1
- EC200 [1]: 20 µM
- EC200 [2]: 23 µM

SMILES: Cc1sc2ncn(CC(=O)N3CC(C)(F)C3)c(=O)c2c1-c1ccc(Cl)c(F)c1
- EC200 [1]: 1.6 µM
- EC200 [2]: 1 µM
- EC200 [3]: 0.93 µM

SMILES: Cc1sc2ncn(CC(=O)N3CC(C)(F)C3)c(=O)c2c1-c1ccc(F)c(C#N)c1
- EC200 [1]: 1.1 µM
- EC200 [2]: 0.73 µM
- EC200 [3]: 0.65 µM

SMILES: CCCC1(F)CN(C(=O)Cn2cnc3sc(C)c(-c4cccc(Br)c4)c3c2=O)C1
- EC200 [2]: 27 µM
- EC200 [3]: 12 µM

SMILES: Cc1sc2ncn(CC(=O)N3CC(C)(F)C3)c(=O)c2c1-c1ccc2c(c1)OC(F)(F)O2
- EC200 [1]: 1.8 µM
- EC200 [2]: 2.5 µM
- EC200 [3]: 2.7 µM

SMILES: Cc1sc2ncn(CC(=O)N3CC(C)(F)C3)c(=O)c2c1-c1ccc(F)c(C(F)(F)F)c1
- EC200 [1]: 2.2 µM
- EC200 [2]: 0.45 µM
- EC200 [3]: 0.4 µM

SMILES: CC1(F)CN(C(=O)Cn2cnc3scc(-c4ccc(F)c(Br)c4)c3c2=O)C1
- EC200 [1]: 0.49 µM
- EC200 [2]: 0.22 µM
- EC200 [3]: 0.28 µM

SMILES: CC1(F)CN(C(=O)Cn2cnc3sc(C#N)c(-c4ccc(F)c(Br)c4)c3c2=O)C1
- EC200 [1]: 0.26 µM
- EC200 [2]: 0.18 µM
- EC200 [3]: 0.23 µM

SMILES: Cc1sc2ncn(CC(=O)N3CC(C)(F)C3)c(=O)c2c1-c1cccc(Cl)c1F
- EC200 [1]: 1.9 µM
- EC200 [2]: 1.2 µM
- EC200 [3]: 1.2 µM

SMILES: Cc1sc2ncn(CC(=O)N3CC(C)(F)C3)c(=O)c2c1-c1ccc2ccn(C)c2c1
- EC200 [1]: 2.6 µM
- EC200 [2]: 3.1 µM
- EC200 [3]: 3.7 µM

SMILES: Cc1sc2ncn(CC(=O)N3CC(C)(F)C3)c(=O)c2c1-c1cccc(Cl)c1
- EC200 [1]: 1.2 µM
- EC200 [2]: 0.68 µM
- EC200 [3]: 0.82 µM

SMILES: Cc1sc2ncn(CC(=O)N3CC[C@H](F)C3)c(=O)c2c1-c1cccc(Br)c1
- EC200 [1]: 3.8 µM
- EC200 [2]: 2 µM
- EC200 [3]: 2.6 µM

SMILES: Cc1sc2ncn(CC(=O)N3CC(C)(F)C3)c(=O)c2c1-c1cc(F)cc(Cl)c1
- EC200 [1]: 1.6 µM
- EC200 [2]: 1.9 µM
- EC200 [3]: 1.3 µM

SMILES: Cc1sc2ncn(CC(=O)N3CC[C@@H](F)C3)c(=O)c2c1-c1cccc(Br)c1
- EC200 [1]: 9 µM
- EC200 [2]: 4.8 µM
- EC200 [3]: 6.1 µM

SMILES: CC1(F)CN(C(=O)Cn2cnc3sc(C(F)(F)F)c(-c4ccc(F)c(Br)c4)c3c2=O)C1
- EC200 [1]: 0.85 µM
- EC200 [2]: 0.6 µM
- EC200 [3]: 0.68 µM

SMILES: Cc1sc2ncn(CC(=O)N3CC(C)(F)C3)c(=O)c2c1-c1cccc(C(F)(F)F)c1
- EC200 [1]: 1.7 µM
- EC200 [2]: 0.66 µM
- EC200 [3]: 0.61 µM

SMILES: Cc1sc2ncn(CC(=O)N3CCC[C@@H]3C)c(=O)c2c1-c1cccc(Br)c1
- EC200 [1]: 34 µM
- EC200 [2]: 9.7 µM
- EC200 [3]: 11 µM

SMILES: Cc1sc2ncn(CC(=O)N3CCCC3)c(=O)c2c1-c1cccc(Br)c1
- EC200 [30]: 12 µM
- EC200 [31]: 6.2 µM
- EC200 [32]: 6.6 µM

SMILES: Cc1sc2ncn(CC(=O)N3CC(C)(C)C3)c(=O)c2c1-c1cccc(Br)c1
- EC200 [1]: 5.3 µM
- EC200 [2]: 2.9 µM
- EC200 [3]: 3 µM

SMILES: Cc1sc2ncn(CC(=O)N3CC(F)(C4CC4)C3)c(=O)c2c1-c1cccc(Br)c1
- EC200 [1]: 6.3 µM
- EC200 [2]: 1.6 µM
- EC200 [3]: 1.4 µM

SMILES: Cc1sc2ncn(CC(=O)N3CC(C)(F)C3)c(=O)c2c1-c1cccc(Br)c1
- EC200 [1]: 0.6 µM
- EC200 [2]: 0.52 µM
- EC200 [3]: 0.49 µM

SMILES: Cc1sc2ncn(CC(=O)N3CC(F)C3)c(=O)c2c1-c1cccc(Br)c1
- EC200 [1]: 14 µM
- EC200 [2]: 8.9 µM
- EC200 [3]: 11 µM

SMILES: Cc1sc2ncn(CC(=O)N3CC(C)(F)C3)c(=O)c2c1-c1ccc2ccccc2c1
- EC200 [1]: 0.86 µM
- EC200 [2]: 1 µM
- EC200 [3]: 1.4 µM

SMILES: Cc1sc2ncn(CC(=O)N3CCC[C@H]3C)c(=O)c2c1-c1cccc(Br)c1
- EC200 [1]: 18 µM
- EC200 [2]: 8.8 µM
- EC200 [3]: 11 µM

SMILES: Cc1sc2ncn(CC(=O)N3CCC(F)(F)C3)c(=O)c2c1-c1cccc(Br)c1
- EC200 [1]: 2.2 µM
- EC200 [2]: 2 µM
- EC200 [3]: 2.6 µM

SMILES: Cc1sc2ncn(CC(=O)N3CC(C)(F)C3)c(=O)c2c1-c1ccc(F)c(Cl)c1
- EC200 [1]: 0.47 µM
- EC200 [2]: 0.33 µM
- EC200 [3]: 0.21 µM
